“And” between values parts separate entries of the source, which are not always exact repeats. Equal values may be shown once. Read-outs that look alike come from different tables or passages of the source.
Tests used:
Fo.Ste2 [1] = assay type: cell-based, Fusarium oxysporum
Bc.Ste2 = assay type: cell-based, Botrytis cinerea
Fo.Ste2 [2] = assay type: cell-based, Fusarium oxysporum; remark: listed apart in the source
Hj Ste2 GPCR (Hj.Hpr2) = assay type: cell-based, Hypocrea jecorina
[3] = system: empty (strain lacking a GPCR); assay type: cell-based, Saccharomyces cerevisiae; details: Fig. 1D mating matrix; pheromone secreted by MATa strain, MATα strain lacking a GPCR (empty); deep well plate, 20 h coculture
[4] = system: no_GPCR (negative control lacking a GPCR); assay type: cell-based, Saccharomyces cerevisiae

`CSCC[C@H](NC(=O)[C@H](CS)NC(=O)[C@@H](N)Cc1c[nH]c2ccccc12)C(=O)N[C@@H](CCCNC(=N)N)C(=O)N1CCC[C@H]1C(=O)NCC(=O)N[C@@H](CCC(N)=O)C(=O)N1CCC[C@H]1C(=O)N[C@@H](CS)C(=O)N[C@@H](Cc1c[nH]c2ccccc12)C(=O)O` [Bb] was tested, and the “Activation of Fo.Ste2 biosensor, in words” value (Fo.Ste2 [1]) was “strong activation”, the “Fold change yEGFP” value (Fo.Ste2 [1]) was 204 and the “Fold change yEGFP” value (Bc.Ste2) was 24. The “Diploid frequency (%)” value (Fo.Ste2 [2]) was 0.9% and 0.1%, the “average (diploid colonies)” value (Fo.Ste2 [2]) was 2.67 and 3 and 2 and the “diploid frequency (%)” value (Fo.Ste2 [2]) was 0.93% and 1.04% and 0.7%. The “Diploid frequency (%)” value (Hj Ste2 GPCR (Hj.Hpr2)) was 0.0%, the “Diploid frequency (%)” value [3] was 0.1% and the “diploid barcode qPCR signal relative to control (2^-dCt)” value ([4]; section A4, GPCR strain not given, mean of Bio1-3) was 0.035. For the same compound, the “diploid barcode qPCR signal relative to control (2^-dCt)” value ([4]; section A4, column EMPTY, replicate Bio1) was 0.013, the “diploid barcode qPCR signal relative to control (2^-dCt)” value ([4]; section A4, column EMPTY, replicate Bio2) was 0.091 and the “diploid barcode qPCR signal relative to control (2^-dCt)” value ([4]; section A4, column EMPTY, replicate Bio3) was 0. For the same compound, the “diploid barcode qPCR signal relative to control (2^-dCt)” value ([4]; section Cm, GPCR strain not given, mean of Bio1-3) was 0.002, the “diploid barcode qPCR signal relative to control (2^-dCt)” value ([4]; section Cm, column EMPTY, replicate Bio1) was 0 and the “diploid barcode qPCR signal relative to control (2^-dCt)” value ([4]; section Cm, column EMPTY, replicate Bio2) was 0. For the same compound, the “diploid barcode qPCR signal relative to control (2^-dCt)” value ([4]; section Cm, column EMPTY, replicate Bio3) was 0.005, the “diploid barcode qPCR signal relative to control (2^-dCt)” value ([4]; section SC, GPCR strain not given, mean of Bio1-3) was 0.0013 and the “diploid barcode qPCR signal relative to control (2^-dCt)” value ([4]; section SC, column EMPTY, replicate Bio1) was 0. For the same compound, the “diploid barcode qPCR signal relative to control (2^-dCt)” value ([4]; section SC, column EMPTY, replicate Bio2) was 0, the “diploid barcode qPCR signal relative to control (2^-dCt)” value ([4]; section SC, column EMPTY, replicate Bio3) was 0.004 and the “diploid barcode qPCR signal relative to control (2^-dCt)” value ([4]; section Scramble, GPCR strain not given, mean of Bio1-3) was 0.0007. For the same compound, the “diploid barcode qPCR signal relative to control (2^-dCt)” value ([4]; section Scramble, column EMPTY, replicate Bio1) was 0.002, the “diploid barcode qPCR signal relative to control (2^-dCt)” value ([4]; section Scramble, column EMPTY, replicate Bio2) was 0 and the “diploid barcode qPCR signal relative to control (2^-dCt)” value ([4]; section Scramble, column EMPTY, replicate Bio3) was 0.
